Patent US8846929B2, “Substituted-quinoxaline-type piperidine compounds and the uses thereof” (priority 2007, dated 2014)

How the values were obtained:
[1] = molecular target: T1, human opioid receptor-like (ORL-1) (Homo sapiens (Human), UniProt P41146); test: In vitro ORL-1 receptor [35S]GTPγS functional assay; assay type: biochemical; conditions: mean ± SEM; for EC50: read-out: GTPγS ORL-1 EC50
[2] = molecular target: T2, μ-opioid receptor (Homo sapiens (Human), UniProt P35372); test: In vitro mu-opioid receptor binding assay ([3H]-diprenorphine displacement); conditions: read-out: Ki [Average ± Std Deviation] Opioid Receptor Mu
[3] = molecular target: T3, kappa opioid receptor (Homo sapiens (Human), UniProt P41145); test: In vitro kappa-opioid receptor [35S]GTPγS functional assay; assay type: biochemical; conditions: mean ± SEM; for EC50: read-out: GTPγS Opioid Receptor Kappa EC50
[4] = molecular target: delta opioid receptor (Homo sapiens (Human), UniProt P41143); test: In vitro delta-opioid receptor binding assay ([3H]-Naltrindole displacement); conditions: for Ki [Average ± Std Deviation] Opioid Receptor Delta: recombinant receptor expressed in CHO-K1 cells
[5] = molecular target: T1, human opioid receptor-like (ORL-1); test: In vitro ORL-1 receptor binding assay ([3H]-nociceptin displacement)
[6] = molecular target: T3, kappa opioid receptor; test: In vitro kappa-opioid receptor binding assay ([3H]-U69,593 displacement)
[7] = molecular target: T2, μ-opioid receptor; test: In vitro mu-opioid receptor [35S]GTPγS functional assay; conditions: mean ± SEM; for EC50: read-out: GTPγS Opioid Receptor Mu EC50

Row | SMILES | GTPγS ORL-1 Emax [1] [%] | EC50 [1] [nM] | Ki [2] [nM] | GTPγS Opioid Receptor Kappa Emax [3] [%] | EC50 [3] [nM] | Ki [4] [nM] | Ki [5] [nM] | Ki [6] [nM] | GTPγS Opioid Receptor Mu Emax [7] [%] | EC50 [7] [nM] | Ki [Average ± Std Deviation] Opioid Receptor Delta [4]
1 | O=C(O)C(=O)N1CC2CN(c3nc4ccccc4n(C4CC5CCC(C4)N5C4CCCCCCC4)c3=O)CC2C1 (stereo not drawn) | 69.7 ± 5.2 | 1620 | 2920 | 0.3 | > 20000 | > 20000 | 71.4 | 488 | – | – | –
2 | CC1(C)[C@H]2CC[C@@H](CCN3[C@@H]4CC[C@H]3C[C@@H](n3c(=O)c(C(=O)O)nc5ccccc53)C4)[C@@H]1C2 | 61.8 | – | 670 | 9.8 | – | 758 | 1.4 | 63 | 9.5 | – | –
3 | CCOC(=O)c1nc2ccccc2n([C@@H]2C[C@H]3CCC[C@@H](C2)N3C/C=C2\CCC3CC2C3(C)C)c1=O | 87.0 | – | – | 5.3 | – | 386 | 10.5 | 20.6 | 21.7 | – | –
4 | CSCCC(NC(=O)c1nc2ccccc2n([C@H]2C[C@H]3CC[C@@H](C2)N3C2CCCCCCC2)c1=O)C(=O)O (stereo partly drawn) | 92.7 ± 2.3 | – | – | 32.3 ± 9.2 | – | 2040 | – | 210 | – | – | –
5 | O=C(O)[C@@H]1CN(CCNc2nc3ccccc3n([C@H]3C[C@H]4CC[C@@H](C3)N4C3CCCCCCC3)c2=O)C[C@H]1C(=O)O | – | – | 37200 | – | – | > 20000 | 104 | 672 | – | – | –
6 | O=C(O)CC1CCN(c2nc3ccccc3n(C3CCN(C4CCCCCCC4)CC3)c2=O)C1 (stereo not drawn) | 84 ± 10 | 3020 | 12800 | – | – | 35600 | 189 | 19300 | – | – | –
7 | O=C(NCc1nn[nH]n1)c1nc2ccccc2n([C@H]2C[C@H]3CC[C@@H](C2)N3C2CCCCCCC2)c1=O | 58.3 ± 3.9 | – | 1160 | – | – | > 20000 | 157 | 1720 | – | – | –
8 | CC(C)(NC(=O)c1nc2ccccc2n([C@H]2C[C@H]3CC[C@@H](C2)N3C2CCCCCCC2)c1=O)C(=O)O | 97.7 ± 2.9 | 379 | 60.2 | 24.7 ± 8.7 | 28900 | 12200 | 77.5 | 144 | 10.3 ± 0.3 | 63400 | –
9 | CC(C)CC(NC(=O)c1nc2ccccc2n([C@H]2C[C@H]3CC[C@@H](C2)N3C2CCCCCCC2)c1=O)C(=O)O (stereo partly drawn) | 67 ± 53 | 269 | 452 | 12.0 ± 4.0 | 3950 | 2220 | 35.8 | 35.3 | 12.3 ± 0.3 | 21200 | –
10 | O=C(N[C@H](C(=O)O)c1ccccc1)c1nc2ccccc2n([C@H]2C[C@H]3CCC[C@@H](C2)N3C2CCCCCCC2)c1=O | 57.7 ± 2 | – | 443 | 8.7 ± 1.3 | – | 106 | 9 | 63.4 | 12 ± 1.8 | – | –
11 | O=C(O)c1nc2ccccc2n([C@H]2C[C@H]3CC[C@@H](C2)N3C2CCCCCCC2)c1=O | 113.3 ± 3.3 | – | 678 | 11.3 ± 1.5 | – | 47400 | 12.6 | 630 | 10.0 ± 0.6 | – | –
12 | CCOC(=O)c1nc2ccccc2n([C@H]2C[C@H]3CCC[C@@H](C2)N3C(C)CCC(C)C)c1=O (stereo partly drawn) | 82.0 ± 2 | – | 487 | 10 ± 0.6 | – | 1400 | 29.8 | 162 | 40.7 ± 3.2 | – | –
13 | O=C(O)c1nc2ccccc2n([C@H]2C[C@H]3CC[C@@H](C2)N3C23CCC(CC2)C3)c1=O | 74.7 ± 3.8 | – | 5490 | – | – | > 20000 | 128 | – | – | – | –
14 | O=c1c(N2CCOCC2)nc2ccccc2n1C1CCN(C2CCCCCCC2)CC1 | 43 ± 1.7 | 1850 | 13500 | – | – | 76300 | – | – | – | – | –
15 | O=c1c(NC[C@@H](O)CO)nc2ccccc2n1[C@H]1C[C@H]2CC[C@@H](C1)N2C1CCCCCCC1 | 112.3 ± 6.3 | – | 576 | 5.7 ± 0.3 | – | 49100 | 6.5 | 156 | 8.7 ± 3.4 | – | –
16 | NC(=O)CNc1nc2ccccc2n([C@@H]2C[C@H]3CC[C@@H](C2)N3C2CCCCCCC2)c1=O | 73.7 ± 4.4 | – | 6700 | – | – | 26500 | 234 | 4330 | – | – | –
17 | O=C(O)CC(NC(=O)c1nc2ccccc2n([C@H]2C[C@H]3CC[C@@H](C2)N3C2CCCCCCC2)c1=O)C(=O)O (stereo partly drawn) | 81.3 ± 3.2 | – | – | – | – | 8680 | – | – | – | – | –

Row | SMILES | GTPγS ORL-1 Emax [1] [%] | EC50 [1] [nM] | Ki [2] [nM] | GTPγS Opioid Receptor Kappa Emax [3] [%] | EC50 [3] [nM] | Ki [4] [nM] | Ki [5] [nM] | Ki [6] [nM] | GTPγS Opioid Receptor Mu Emax [7] [%] | EC50 [7] [nM] | Ki [Average ± Std Deviation] Opioid Receptor Delta [4]
18 | COc1nc2ccccc2n([C@H]2C[C@H]3CC[C@@H](C2)N3C2CCCCCCC2)c1=O | – | – | 248 | – | – | – | 4.2 | 161 | – | – | –
19 | CC(NC(=O)c1nc2ccccc2n([C@H]2C[C@H]3CC[C@@H](C2)N3C2CCCCCCC2)c1=O)C(=O)O (stereo partly drawn) | 56.5 ± 2.3 | – | – | 20.3 ± 2.6 | – | – | – | 172 | – | – | –
20 | CN(CC(=O)O)[C@H]1CCN(c2nc3ccccc3n([C@H]3C[C@H]4CCC[C@@H](C3)N4C3CCCCCCC3)c2=O)C1 | 57.0 | – | 689 | 20.0 | – | 1160 | 22.9 | 589 | 31.7 | – | –
21 | CC(C)CC(C)N1[C@@H]2CCC[C@H]1C[C@@H](n1c(=O)c(C(=O)O)nc3ccccc31)C2 (stereo partly drawn) | 102.7 ± 2.7 | – | – | 6.7 ± 1.2 | – | – | – | 523 | – | – | –
22 | NC(=O)CNc1nc2ccccc2n(C2CCN(C34CC5CC(CC(C5)C3)C4)CC2)c1=O | 87.7 ± 2.3 | – | – | – | – | – | – | – | – | – | inactive
23 | O=C(O)c1nc2ccccc2n([C@H]2C[C@H]3CCC[C@@H](C2)N3C2/C=C\CCCCC2)c1=O (stereo partly drawn) | 80.3 ± 2.2 | – | 3290 | 6.0 ± 1.5 | – | 5440 | 3.6 | 365 | – | – | –
24 | NC(=O)c1nc2ccccc2n([C@H]2C[C@H]3CC[C@@H](C2)N3C2CCCCCCC2)c1=O | 113 ± 8 | – | 819 | 17 ± 2.7 | – | 25200 | 4.42 | 154 | 13 ± 2.1 | – | –
25 | CCOC(=O)c1nc2ccccc2n([C@H]2C[C@H]3CCC[C@@H](C2)N3C(C)CC(C)C)c1=O (stereo partly drawn) | 98.3 ± 1.7 | – | – | 7 ± 0.6 | – | 2860 | 9.9 | 85.4 | 56 ± 6.5 | – | –
26 | CCOC(=O)[C@@H]1CN(CCNc2nc3ccccc3n([C@H]3C[C@H]4CC[C@@H](C3)N4C3CCCCCCC3)c2=O)C[C@H]1C(=O)OCC | 68 ± 3 | 214 | – | 11.7 ± 0.3 | 429 | > 20000 | 24.6 | 16.2 | – | – | –
27 | O=c1c(NCC(O)CO)nc2ccccc2n1[C@H]1C[C@H]2CC[C@@H](C1)N2C1CCCCCCC1 (stereo partly drawn) | 113.7 ± 2.0 | – | 394 | 10.3 ± 0.9 | – | 21900 | 5.54 | 224 | 16.3 ± 1.2 | – | –
28 | O=C(NCC(O)CO)c1nc2ccccc2n([C@H]2C[C@H]3CC[C@@H](C2)N3C2CCCCCCC2)c1=O (stereo partly drawn) | 107.3 ± 2.4 | – | 391 | 10.3 ± 1.8 | – | 42000 | 12 | 380 | 10.8 ± 2.1 | – | –
29 | O=C(O)c1nc2ccc(F)cc2n([C@H]2C[C@H]3CC[C@@H](C2)N3C2CCCCCCC2)c1=O | 81.3 ± 3.0 | – | – | – | – | 25000 | – | – | – | – | –
30 | CC(C)CC(C)N1[C@@H]2CC[C@H]1C[C@@H](n1c(=O)c(C(=O)O)nc3ccccc31)C2 (stereo partly drawn) | 86.5 ± 2.6 | – | 1760 | 30.3 | – | 2860 | 50 | 480 | – | – | –
31 | NC(=O)C1CCN(c2nc3ccccc3n(C3CCN(C4CCCCCCC4)CC3)c2=O)CC1 | 85 ± 0.6 | – | – | – | – | – | – | – | – | – | inactive
32 | O=C(O)CN1CCN(c2nc3ccccc3n([C@H]3C[C@H]4CC[C@@H](C3)N4C3CCCCCCC3)c2=O)CC1 | 78 | – | – | 10.7 | > 20000 | – | – | 220 | – | – | –
33 | CCOC(=O)C1CN(CCNc2nc3ccccc3n([C@H]3C[C@H]4CC[C@@H](C3)N4C3CCCCCCC3)c2=O)C[C@H]1C(=O)OCC (stereo partly drawn) | 66.3 ± 2.4 | – | – | 13.0 ± 1.7 | – | 67100 | 62.2 | 31.2 | – | – | –
